scFv variants of Ab-14 (heavy chain) against a SARS-CoV-2 spike peptide

The measurements come from Li et al. 2023 (doi:10.1038/s41467-023-39022-2) through the FLAb antibody collection.

Target: peptide PDVDLGDISGINAS, taken from heptad repeat 2 (HR2) of SARS-CoV-2 spike.

Each scFv is VH, three GGGGS repeats, VL, as in the parent Ab-14, and differs from it in the CDRs of the heavy chain only.
VH: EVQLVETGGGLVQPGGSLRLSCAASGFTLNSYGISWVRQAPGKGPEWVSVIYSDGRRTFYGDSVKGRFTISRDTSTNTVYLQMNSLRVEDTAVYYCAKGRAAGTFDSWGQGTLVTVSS
VL: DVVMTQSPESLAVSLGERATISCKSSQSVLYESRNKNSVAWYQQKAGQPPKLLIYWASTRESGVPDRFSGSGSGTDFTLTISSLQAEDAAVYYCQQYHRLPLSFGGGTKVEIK

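The parent was found by panning a naive human phage display library on the peptide. These sequences belong to a second round, designed from the earlier measurements on random variants of the parent. Their group label is 14H_GP_Gibbs (GP: Gaussian process model; Gibbs: Gibbs sampling; a sequence that several methods proposed may carry one label only). AlphaSeq pools MATa yeast showing the antibodies with MATalpha yeast showing the peptide. The frequency of each diploid, read from paired DNA barcodes, reflects how well the two displayed proteins bind. A regression on co-assayed BCL2-family reference pairs converts the normalised counts of each replicate to an apparent Kd. There are six technical replicates.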

Each variant is given by its three heavy chain CDRs, as the data file delimits them; those of the parent are GFTLNSYGIS, VIYSDGRRTFYGDSVK, GRAAGTFDS. Scale: log10 of Kd in nM, estimated from mating counts; low values are strong binders. A mean of the replicates is given; it leaves out those without a signal. "ND" marks a missing value. The strain was present, yet no cells mated with the target were sequenced in that replicate, which points to weak or no binding. Empty control strains, which show no peptide, gave a signal in 1% of pairings with all heavy chain designs; the median was 2.08 and 95% of these signals were weaker than 0.84. No background was subtracted. For each scFv, signals with the empty controls are counted beside the result, with their mean in brackets. In the paper, a design with two or fewer of six values counts as a poor binder. Of ten entries with the parent sequence, four were seen in most replicates (averages 0.34 to 2.37), three in one and three in none, so single entries are noisy. Values of this round are not directly comparable with the first-round values of the same sequences.

| CDR-H1 | CDR-H2 | CDR-H3 | replicates, log10 nM | mean log10 Kd (nM) | empty controls |
|---|---|---|---|---|---|
| GFELNSYGIS | VIYSDGKRTFYADNVK | GRTAGTFDS | -0.21 -0.29 -0.48 -0.35 0.48 0.04 | -0.13 | 0/18 |
| GKSLNSYGIS | VIYSDGRRTFYGDQVK | GQTAGTFDS | ND ND ND ND ND ND | ND | 0/18 |
| GFQLNSYGIS | VIYSDGRRTFYQDSVK | GNVAGTFDS | ND 2.05 ND 0.46 ND ND | 1.25 | 1/18 (1.63) |
| GFSLNSYGIS | VIYSDGRRTFYGDSVK | GVKAGTFDD | 2.74 1.81 ND 1.85 2.57 1.84 | 2.16 | 0/18 |
| KFSLNNYGIS | VIYSDGRRTFYSDSVK | GRTAGTFDS | 0.31 -0.01 0.91 0.29 0.87 0.39 | 0.46 | 1/18 (2.09) |
| GFDLNSYGIS | VIYSDGQRTFYGDAVK | GRTAGTFDS | ND 1.33 0.88 ND -0.15 0.32 | 0.60 | 0/18 |
| GFSLNSYGIS | VIYSDGRRTFYQDRVK | GQAAGTFDS | ND 1.46 1.51 ND 3.27 1.53 | 1.94 | 0/18 |
| GYTLNEYGIS | VIYSDGRRTFYGDSVK | GRTAGTFDK | 1.48 1.63 ND 2.14 1.83 2.13 | 1.84 | 0/18 |
| GFELNSYGIS | VIYSDGRRTFYVDMVK | GQTAGTFDS | ND ND ND ND ND ND | ND | 0/18 |
| GFQLNEYGIS | VIYSDGRRTFYSDSVK | GSAAGTFDS | 0.12 -0.24 0.11 -0.22 -0.29 0.27 | -0.04 | 1/18 (2.86) |
| GFQLNSYGIS | VIYSDGRRTFYADRVK | GEAAGTFDK | 1.01 1.08 1.15 1.03 1.30 1.43 | 1.17 | 0/18 |
| GFNLNSYGIS | VIYSDGRRTFYDDSVK | GWMAGTFDS | ND ND ND 0.26 ND ND | 0.26 | 0/18 |
| GFSLNSYGIS | VIYSDGRRTFYQDSVK | GRWAGTFDS | ND 0.90 2.44 1.15 1.09 1.19 | 1.35 | 0/18 |
| GFDLNTYGIS | VIYSDGRRTFYGDKVK | GRTAGTFDS | 0.21 0.29 -0.26 0.05 0.39 0.32 | 0.16 | 0/18 |
| GFDLNSYGIS | VIYSDGRRTFYKDTVK | GRTAGTFDS | 0.70 0.49 ND 0.25 0.29 -0.09 | 0.33 | 0/18 |
| GFSLNEYGIS | VIYSDGRRTFYIDQVK | GRAAGTFDS | 0.97 -0.02 -0.50 0.17 0.12 0.30 | 0.17 | 0/18 |
| GFNLNSYGIS | VIYSDGRRTFYKDQVK | GRTAGTFDS | ND ND ND ND ND ND | ND | 1/18 (1.21) |
| GFELNSYGIS | VIYADGRRTFYGDSVK | GRAAGTFDC | 1.21 1.26 ND ND 0.92 ND | 1.13 | 0/18 |
| GFGLNEYGIS | VIYSDGKRTFYSDSVK | GRAAGTFDS | -0.28 -0.44 -0.47 -0.45 -0.52 -0.41 | -0.43 | 0/18 |
| GFHLNEYGIS | VIYSDGRRTFYGDSVK | GHAAGTFDS | 0.38 0.27 0.32 0.26 0.59 0.43 | 0.38 | 1/18 (2.47) |
| GFTLNSYGIS | VIYSDGRRTFYIDSVK | GGEAGTFDT | 0.58 0.21 -0.03 0.28 0.16 0.27 | 0.25 | 0/18 |
| GFSLNNYGIS | VIYSDGRRTFYGDSVK | GRNAGTFDT | 0.45 0.06 0.50 0.61 0.47 0.31 | 0.40 | 0/18 |
| YFTLNEYGIS | VIYSDGRRTFYSDSVK | GQAAGTFDK | 1.41 ND ND ND ND 1.31 | 1.36 | 1/18 (1.79) |
| GFELNSYGIS | VIYSDGRRTFYGDSVK | GITAGTFDK | 0.49 0.98 -0.39 -0.30 0.19 0.97 | 0.32 | 0/18 |
| GFQLNSYGIS | VIYSDGRRTFYIDSVK | GRMAGTFDS | ND ND ND ND ND ND | ND | 1/18 (1.92) |
| GFSLNSYGIS | VIYSDGRRTFYSDSVK | GNAAGTFDL | -0.24 -0.68 -0.39 0.20 -0.66 -0.55 | -0.39 | 0/18 |
| GFQLNTYGIS | VIYSDGRRTFYSDSVK | GEAAGTFDS | 0.70 0.68 0.35 0.25 0.79 0.16 | 0.49 | 0/18 |
| GFDLNSYGIS | VIYSDGRRTFYLDSVK | GHAAGTFDS | 0.35 1.02 0.11 0.35 0.49 0.58 | 0.48 | 0/18 |
| GFTLNSYGIS | VIYSDGRRTFYADDVK | GEAAGTFDK | 0.08 0.00 0.25 0.13 0.03 0.21 | 0.12 | 0/18 |
| GFNLNSYGIS | VIYSDGRRTFYGDQVK | GREAGTFDN | 0.90 1.43 1.54 1.10 1.14 1.23 | 1.22 | 1/18 (1.32) |
| GFWLNSYGIS | VIYSDGRRTFYADSVK | GWMAGTFDS | 1.32 ND 1.92 2.20 ND ND | 1.81 | 0/18 |
| GFNLNSYGIS | VIYSDGRRTFYIDSVK | GQVAGTFDA | 0.93 0.63 0.38 0.93 0.85 0.87 | 0.76 | 0/18 |
| GFSLNEYGIS | VIYSDGRRTFYKDSVK | GEAAGTFDS | 0.34 0.34 1.04 0.27 1.32 0.90 | 0.70 | 0/18 |
| GFDLNSYGIS | VIYSDGRRTFYGDSVK | GKNAGTFDA | -0.08 0.06 0.35 -0.11 0.13 0.02 | 0.06 | 0/18 |
| GKSLNDYGIS | VIYSDGRRTFYGDWVK | GRTAGTFDS | ND ND ND ND ND ND | ND | 0/18 |
| GFDLNSYGIS | VIYSDGRRTFYIDAVK | GRQAGTFDS | 0.86 0.84 0.65 1.01 0.87 0.53 | 0.79 | 1/18 (2.98) |
| GFQLNSYGIS | VIYSDGQRTFYVDSVK | GRTAGTFDS | ND 1.00 2.74 2.27 2.89 2.42 | 2.26 | 0/18 |
| GFQLNSYGIS | VIYSDGRRTFYTDSVK | GNAAGTFDS | 1.21 0.58 0.91 0.93 0.39 -0.06 | 0.66 | 0/18 |
| GFELNAYGIS | VIYSDGRRTYYGDSVK | GRTAGTFDS | 0.11 1.35 ND 0.53 1.23 0.24 | 0.69 | 0/18 |
| GFQLNEYGIS | VIYSDGRRTFYGDSVK | GQAAGTFDA | 0.57 0.76 0.74 0.42 0.60 2.72 | 0.97 | 0/18 |
| GFSLESYGIS | VIYSDGRRTFYADDVK | GRAAGTFDS | 0.22 -0.07 0.32 -0.07 -0.05 0.45 | 0.13 | 0/18 |
| GFQLNEYGIS | VIYSDGRRTFYGDQVK | GQAAGTFDD | 0.55 ND ND ND ND ND | 0.55 | 0/18 |
| GFWLNEYGIS | VIYSDGRRTFYGDSVK | GQTAGTFDT | ND ND ND ND 0.47 ND | 0.47 | 0/18 |
| GFGLNSYGIS | VIYSDGRRTFYIDQVK | GQTAGTFDS | ND ND ND ND 1.89 1.47 | 1.68 | 0/18 |
| GFSLNSYGIS | VIYSDGRRTFYGDPVK | GMTAGTFDS | 0.34 0.06 0.36 -0.03 0.03 0.20 | 0.16 | 0/18 |
| GFTLNSYGIS | VIYSDGRRTFYGDSVK | GQVTGTFDT | ND ND ND ND ND ND | ND | 0/18 |

The 5 strongest on average among those seen in every replicate, once more:

CDR-H1,CDR-H2,CDR-H3,"replicates, log10 nM",mean log10 Kd (nM),empty controls
GFGLNEYGIS,VIYSDGKRTFYSDSVK,GRAAGTFDS,-0.28 -0.44 -0.47 -0.45 -0.52 -0.41,-0.43,0/18
GFSLNSYGIS,VIYSDGRRTFYSDSVK,GNAAGTFDL,-0.24 -0.68 -0.39 0.20 -0.66 -0.55,-0.39,0/18
GFELNSYGIS,VIYSDGKRTFYADNVK,GRTAGTFDS,-0.21 -0.29 -0.48 -0.35 0.48 0.04,-0.13,0/18
GFQLNEYGIS,VIYSDGRRTFYSDSVK,GSAAGTFDS,0.12 -0.24 0.11 -0.22 -0.29 0.27,-0.04,1/18 (2.86)
GFDLNSYGIS,VIYSDGRRTFYGDSVK,GKNAGTFDA,-0.08 0.06 0.35 -0.11 0.13 0.02,0.06,0/18